Some results are limits rather than exact numbers.

In the experiment the target is T1, Phosphatidylinositol 4,5-bisphosphate 3-kinase catalytic subunit delta isoform (Homo sapiens, UniProt O00329).
T1 sequence (O00329 whole entry): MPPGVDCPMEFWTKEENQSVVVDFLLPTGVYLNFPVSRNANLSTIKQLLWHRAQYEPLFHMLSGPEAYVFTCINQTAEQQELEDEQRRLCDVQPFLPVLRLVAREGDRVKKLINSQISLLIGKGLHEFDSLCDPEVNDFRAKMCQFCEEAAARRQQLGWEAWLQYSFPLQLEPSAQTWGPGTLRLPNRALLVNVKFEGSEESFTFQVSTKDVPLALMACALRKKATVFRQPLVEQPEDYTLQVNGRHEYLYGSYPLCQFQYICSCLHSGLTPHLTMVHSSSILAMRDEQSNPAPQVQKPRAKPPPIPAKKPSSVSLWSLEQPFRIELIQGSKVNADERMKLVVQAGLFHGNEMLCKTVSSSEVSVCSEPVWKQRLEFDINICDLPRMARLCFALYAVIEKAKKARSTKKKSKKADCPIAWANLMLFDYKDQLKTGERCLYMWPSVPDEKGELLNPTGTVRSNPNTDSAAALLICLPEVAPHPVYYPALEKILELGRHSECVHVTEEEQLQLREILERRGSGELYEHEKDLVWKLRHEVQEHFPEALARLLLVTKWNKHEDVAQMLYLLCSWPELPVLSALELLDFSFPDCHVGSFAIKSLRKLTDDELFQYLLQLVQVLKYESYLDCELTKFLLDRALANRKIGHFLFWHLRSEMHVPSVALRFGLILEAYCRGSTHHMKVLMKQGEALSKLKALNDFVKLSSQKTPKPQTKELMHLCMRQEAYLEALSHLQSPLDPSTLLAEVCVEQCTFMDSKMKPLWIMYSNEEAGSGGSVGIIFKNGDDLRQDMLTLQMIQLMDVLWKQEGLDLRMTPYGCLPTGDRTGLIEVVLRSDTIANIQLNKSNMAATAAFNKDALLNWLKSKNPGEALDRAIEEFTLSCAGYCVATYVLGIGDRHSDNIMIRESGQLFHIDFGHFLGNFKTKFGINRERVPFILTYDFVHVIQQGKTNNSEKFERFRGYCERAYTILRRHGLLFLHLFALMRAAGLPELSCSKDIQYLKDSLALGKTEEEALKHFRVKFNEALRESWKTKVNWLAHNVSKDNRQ
Put plainly: PI3Kdelta Scintillation Proximity A3 Assay. The text has this: [γ-33P]ATP (10 mCi/mL) was purchased from Perkin-Elmer (Waltham, Mass.). Lipid kinase substrate, D-myo-Phosphatidylinositol 4,5-bisphosphate (PtdIns(4,5)P2)D (+)-sn-1,2-di-O-octanoylglyceryl, 3-O-phospho linked (PIP2), CAS 204858-53-7, was purchased from Echelon Biosciences (Salt Lake City, Utah). PI3Kδ (p110δ/p85α) was purchased from Millipore (Bedford, Mass.). ATP, MgCl2, DTT, EDTA, MOPS and CHAPS were purchased from Sigma-Aldrich (St. Louis, Mo.). Wheat Germ Agglutinin (WGA) YSi SPA Scintillation Beads was purchased from GE healthcare life sciences (Piscataway, N.J.).The kinase reaction was conducted in polystyrene 384-well matrix white plate from Thermo Fisher Scientific in a final volume of 25 μL. Inhibitors were first diluted serially in DMSO and added to the plate wells before the addition of other reaction components. The final concentration of DMSO in the assay was 0.5%. The PI3K assays were carried out at room temperature in 20 mM MOPS, pH 6.7, 10 mM MgCl2, 5 mM DTT and CHAPS 0.03%. Reactions were initiated by the addition of ATP, the final reaction mixture consisted of 20 μM PIP2, 20 μM ATP, 0.2 μCi [γ-33P] ATP, 4 nM PI3Kδ. […] After the plate sealing, plates were shaken overnight at room temperature and centrifuged at 1800 rpm for 10 minutes, the radioactivity of the product was determined by scintillation counting on Topcount (Perkin-Elmer). […]
On the technique in general: In a scintillation proximity assay essentially only radioactivity close to the scintillant gives light.

What is called IC50 is the point on the concentration scale where inhibition reaches its midpoint. A higher IC50 goes with weaker potency. On to `CCOc1c(C(C)n2ccc(=O)c3c(N)ncnc32)cc(Cl)c(C)c1-c1ccc(C(=O)N(C)C)cc1` (stereo unspecified) [US10376513, Example 36], for which the IC50 is less than 10 nM.

(Values after BindingDB's records for patent US10376513 (Incyte Holdings Corporation, 2019).)
